The values that follow come from ChEMBL document CHEMBL5579862, “Development of Novel Bacterial Topoisomerase Inhibitors Assisted by Computational Screening” (ACS Med Chem Lett, 2024).

The subject of the assay is Staphylococcus aureus. In words: Selectivity ratio of IC50 for Staphylococcus aureus topoisomerase-IV to IC50 for Staphylococcus aureus DNA gyrase.

In the case of `COc1ccc2ncc(F)c(CCN3CCC(NCc4ccc(C)cc4)CC3)c2n1`, the Ratio IC50 worked out at 177.
